Experimental data reported in patent publication WO2009073805A2.

Legend:
[1] = molecular target: human TNF α (human) (UniProt P01375); assay: ELISA on TNF α coated plate; pelB7 1 L culture, medium, 1/10 dilution (Table 4)
[2] = molecular target: human TNF α (human) (UniProt P01375); assay: ELISA on TNF α coated plate; unconcentrated culture medium, 1/10 dilution (Table 2)
[3] = molecular target: human TNF α (human) (UniProt P01375); assay: solution incubation with TNF α, read by ELISA; Scatchard plot, 25 pM point neglected
[4] = molecular target: human TNF α (human) (UniProt P01375); assay: solution incubation with TNF α, read by ELISA; ratio of the directly calculated Kd values
[5] = molecular target: human TNF α (human) (UniProt P01375); assay: ELISA on TNF α coated plate; pelB7 1 L culture, medium, 1/10 dilution, duplicate (Table 4)
[6] = molecular target: human TNF α (human) (UniProt P01375); assay: ELISA on TNF α coated plate; unconcentrated culture medium, 1/10 dilution, duplicate (Table 2)
[7] = molecular target: human TNF α (human) (UniProt P01375); assay: ELISA on TNF α coated plate; pelB7 1 L culture, osmotic shock fraction, 1/10 dilution (Table 4)
[8] = molecular target: human TNF α (human) (UniProt P01375); assay: ELISA on TNF α coated plate; pelB7 1 L culture, osmotic shock fraction, 1/10 dilution, duplicate (Table 4)
[9] = molecular target: human TNF α (human) (UniProt P01375); assay: ELISA on TNF α coated plate; pelB7 1 L culture, wash solution of the osmotic shock procedure, 1/10 dilution (Table 4)
[10] = molecular target: human TNF α (human) (UniProt P01375); assay: solution incubation of antibody with 800-25 pM TNF α, read by ELISA; Kd calculated directly at each antigen concentration
[11] = molecular target: human TNF α (human) (UniProt P01375); assay: ELISA on TNF α coated plate; pelB7 1 L culture, wash solution of the osmotic shock procedure, 1/10 dilution, duplicate (Table 4)

ELISA signal [1]: 1.03 | ELISA signal [2]: 0.315 | Kd [3]: 0.12 nM | fold of Kd against Adalimumab (Humira) [4]: 1.2 fold | ELISA signal [5]: 1.03 | ELISA signal [6]: 0.274 | ELISA signal [7]: 0.276 | ELISA signal [8]: 0.266 | ELISA signal [9]: 0.165 | Kd [10]: 0.09 nM | ELISA signal [11]: 0.148
Substance: E. coli expressed anti-TNF antibody from construct pelB 7 (ecAnti-TNF) (antibody; other documents disagree on this pair)
